{
  "sequences": {"note": "The chains behind the UniProt entries cited, without tags or fusion partners.", "UniProt Q9WTR4, whole entry": "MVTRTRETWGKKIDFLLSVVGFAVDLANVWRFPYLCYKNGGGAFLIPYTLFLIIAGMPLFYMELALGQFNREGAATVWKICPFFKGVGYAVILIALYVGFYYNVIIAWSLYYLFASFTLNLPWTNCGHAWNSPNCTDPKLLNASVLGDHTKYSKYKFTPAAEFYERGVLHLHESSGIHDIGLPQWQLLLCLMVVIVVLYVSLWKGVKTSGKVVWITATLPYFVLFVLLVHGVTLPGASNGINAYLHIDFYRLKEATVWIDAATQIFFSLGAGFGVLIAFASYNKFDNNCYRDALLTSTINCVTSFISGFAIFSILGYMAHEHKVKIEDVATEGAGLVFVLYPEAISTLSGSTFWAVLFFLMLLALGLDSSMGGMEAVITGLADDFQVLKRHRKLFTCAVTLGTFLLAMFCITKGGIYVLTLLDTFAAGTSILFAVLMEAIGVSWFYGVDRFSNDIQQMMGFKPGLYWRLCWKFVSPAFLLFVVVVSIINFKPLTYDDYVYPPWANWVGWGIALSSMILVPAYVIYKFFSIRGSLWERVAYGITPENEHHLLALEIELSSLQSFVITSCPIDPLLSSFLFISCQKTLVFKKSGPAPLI"},
  "source": "ChEMBL document CHEMBL1137232",
  "about": "(J Med Chem, 2004)",
  "target": "Norepinephrine transporter (Rattus norvegicus, UniProt Q9WTR4)",
  "experiment": "Inhibition of high affinity uptake by the norepinephrine transporter from rat synaptosomal nerve endings by using [3H]NE as radioligand",
  "data": [
    {"smiles": "NC(=O)C[S+]([O-])C(c1ccccc1)c1ccccc1", "note": "(stereo unspecified) [MODAFINIL]", "values": [
      {"measurement": "Ki", "result": "> 10", "unit": "µM"}
    ]}
  ]
}
